Measured values as given in ChEMBL document CHEMBL1133341, “ORL1 receptor ligands: structure-activity relationships of 8-cycloalkyl-1-phenyl-1,3,8-triaza-spiro[4.5]decan-4-ones” (Bioorg Med Chem Lett, 2000).

Legend:
Nociceptin receptor = Nociceptin receptor (Rattus norvegicus, UniProt P35370); experiment: Inhibition against binding of radioligand [leucyl-3H]-OFQ to membrane of human embryonic kidney 293 cells overexpressing rat Opioid receptor like 1; settings: hek293
[1] = target: Delta-type opioid receptor (Rattus norvegicus, UniProt P33533); experiment: Inhibition against binding of radioligand [Ile5,6-3H]-deltorphin to membrane from baby hamster kidney cells infected with forest virus encoding the cDNAs for rat Opioid receptor delta 1
Mu-type opioid receptor = Mu-type opioid receptor (Rattus norvegicus, UniProt P33535); experiment: Inhibition against binding of radioligand [N-allyl-2-3-3H]-naloxone to membrane of baby hamster kidney cells infected with forest virus encoding the cDNAs for rat Opioid receptor mu 1
[2] = target: Kappa-type opioid receptor (Rattus norvegicus, UniProt P34975); experiment: Inhibition against binding of radioligand [N-allyl-2-3-3H]-naloxone to membrane of baby hamster kidney cells infected with forest virus encoding the cDNAs for rat Opioid receptor kappa 1

Row | SMILES | Ki (Nociceptin receptor) [nM] | Ki [1] [nM] | Ki (Mu-type opioid receptor) [nM] | Ki [2] [nM]
1 | C[C@H]1CC[C@H](N2CCC3(CC2)C(=O)NCN3c2ccccc2)CC1 | 41 | – | – | –
2 | C[C@H]1CC[C@@H](N2CCC3(CC2)C(=O)NCN3c2ccccc2)CC1 | 7.1 | > 2000 | 64 | 57
3 | O=C1NCN(c2ccccc2)C12CCN(C1CCCCC1)CC2 | 25 | – | 158 | 100
4 | O=C1NCN(c2ccccc2)C12CCN(C1CCCCCC1)CC2 | 4.7 | > 2000 | 51 | 12
